Data set [1] concerns binding of rabbit Ig-HRP by solid phase Protein A. The experiment in a line: Inhibition of binding of Ig-HRP to solid phase Protein A. As for the experimental part:
Protein A (recombinant Protein A from Repligen, Cambridge, Mass.) diluted to 1 μg/ml in coating buffer (0.1M NaHCO3, pH 9.0) was incubated in the wells of a microtiter plate (100 μl per well) for 2 hours at 37° C. Uncoated surfaces of the wells were blocked by adding 340 μl PBSC (9 mM Na2 HPO4, 1 mM NaH2 PO4, pH 7.2, 154 mM NaCl, 1 mg/ml casein or ovalbumin, and 0.01% thimerosal), incubating the plate 1 hour at 37° C., and then washing the wells 3 times with PBSCT (PBSC plus 0.1% Tween 20 (polyoxyethylene sorbitan monolaurate)). […] OPD substrate buffer (0.8 mg/ml o-phenylenediamine, 0.1M Na2 HPO4, 0.05M sodium citrate, pH 5.5, plus 0.15% (v/v) H2 O2) was then added to the wells (100 μl/well), and the resultant colored product was measured with a Titertek Multiskan plate reader using a 414 nm filter.
The wells of a microtiter plate were coated with Protein A as described above in Part A. Ig-HRP diluted 1:5000 in PBS (the dilution determined by the protein A titration experiment of Part A; original Ig-HRP concentration of 3.3 mg/ml) was preincubated with various concentrations of CBP2 for 1 hour at 37° C. before 100 μl of the incubation mixture were added to each well of the microtiter plate. […] OPD substrate buffer was then added (100 μl/well), and the resulting colored product was measured at 414 nm in a Titertek Multiskan plate reader. […]

Data set [2] relates to binding of rabbit Ig-HRP to solid phase C1q. The experiment in a line: Inhibition of binding of Ig-HRP to solid phase C1q. As for the experimental part:
C1q (gift of Dr. Lawrence Potempa, Immtech International Inc., Evanston, Ill.) diluted to 10 μg/ml in coating buffer was placed in the wells of a microtiter plate (100 μl/well) and incubated for 2 hours at 25° C. The uncoated surfaces of the wells were blocked by adding 340 μl PBSC and incubating the plate for 1 hour at 25° C., followed by washing 3 times with PBSC. Dilutions of Ig-HRP in C1q buffer (50 mM Tris, pH 7.2, 27 mM NaCl, 1 mM CaCl2, 0.01% (wt/v) Thimerosal) were incubated in the wells (100 μl/well) for 1 hour at 25° C. followed by washing 3 times with C1q buffer. OPD substrate buffer was then added (100 μl/well), and the colored product was measured at 414 nm in a Titertek Multiskan plate reader.
C1q was coated onto the surface of the wells of a microtiter plate as described in Part C. […] OPD substrate buffer (100 μl/well) was then added and the colored product measured at 414 nm in a Titertek Mutiskan plate reader.

A short description of data set [3]: Solubility of CBP2 in aqueous solvents / DMF. Type of data set: physicochemical. As for the experimental part:
In addition to the purification performed by Biosearch, the peptide was further purified by gel filtration chromatography. […] Due to the high hydrophobic character of the solvent, Sephadex G25 (Pharmacia, Piscataway, N.J.) was used for the chromatography. A column of dimensions 0.7×40 cm was poured and equilibrated with 1% (v/v) DMF in distilled water (dH2 O). A 2 mg/ml sample of CBP2 was prepared in 50% (v/v) DMF, and 1 ml of the sample was loaded on the column and eluted with 1% DMF at a flow rate of 1 ml/15 min. One ml fractions were collected.
A 1.2 fold increase in peptide purity with a 41% yield of peptide was obtained.

No end group written: not given here.

For “LEQGENVFLQATLLC [CBP2, C1q B chain residues 189-200 plus Leu Leu Cys at the carboxyl terminus]”, the “fold greater 50% inhibition concentration of CBP2 than solution phase Protein A” value in data set [1] is 1000 fold. The “fold difference of 50% inhibition concentration, CBP2 versus liquid phase C1q” value in data set [2] was 1000 fold. Moreover, in data set [3] (lyophilized CBP2, required 50% (v/v) DMF to completely dissolve), the “solubility in aqueous solvents” value is given as “not soluble in aqueous solvents”. Moreover, in data set [3] (purified CBP2), the “solubility in 1% (V/V) DMF” value was “readily soluble”.

For the origin of these results see US5932483A, “Synthetic peptide and its uses” (Northwestern University, priority 1996, dated 1999).
